The values that follow come from ChEMBL document CHEMBL1629505, “Antiarrhythmic, serotonin antagonist and antianxiety activities of novel substituted thiophene derivatives synthesized from 2-amino-4,5,6,7-tetrahydro-N-phenylbenzo[b]thiophene-3-carboxamide” (Eur J Med Chem, 2010).

Each structure is given as a SMILES string.

The subject of this assay is Mus musculus. The assay is described as follows: Antianxiety activity in ip dosed Albino mouse assessed as increase in locomotor activity after 30 mins relative to Diazepam. It is filed as functional.

As for `CN1C(=O)CN=C(c2ccccc2)c2cc(Cl)ccc21` [DIAZEPAM], the Ratio amounted to 1.
